Measured values reported in patent publication US20040259952A1, “Formulations for oral administration of cromolyn sodium” (priority 2001, published 2004).

Tests used:
[1] = Single escalating dose study of Cromolyn/SNAC capsules: plasma pharmacokinetics of cromolyn and SNAC; details: with SNAC
Procedure: This study was a randomized, open label, oral, single escalating dose administration study in healthy, fasted volunteers.
The study was carried out in two parts. […] Safety and pharmacokinetic measures were collected and evaluated following each dose.
On day one of each study treatment period, medication (capsules) was administered following an 8-hour overnight fast. The capsules were swallowed with up to 120 mL of water to the subjects in an upright position.
The process could be summarized as follows: First, sieve SNAC powder through a screen, or delump it using a pestle/mortar.

[2] = Multiple dose study (twice daily for ten days): plasma pharmacokinetics of cromolyn and SNAC; details: twice daily dosing
Procedure: Two groups of human males were defined: group 1 consisted of 12 healthy male volunteers, and group 2 had 12 allergic male volunteers. […] The dosing regimen is illustrated in Table 7 below.
Each subject received oral dosing of the study medication twice a day for nine days. On the last day (i.e., day 10), only the morning dose was administered. The capsules were administered with up to 200 mL of water to the subjects in an upright position. The first dose of each day was administered following an overnight fast, and the second dose of each day was administered at least 1 hour before a meal or 4 hours after a meal. No food was allowed for at least 4 hours before the oral dosing.
Pharmacodynamics were measured for Group 1 and 2 by measuring the length and width of the wheal and flare reaction, and permanent records were generated by marking on transparent tapes and/or by photographs. For Group 2 only, pharmacodynamics were also measured by VAS scores and PNIF measurements before and after nasal provocation test.

Substance: 5,5′-[(2-hydroxy-1,3-propanediyl)bis-(oxy)]4-oxo-4H-1-benzopyran-2-carboxylic acid [cromolyn]
- time within which cleared from the body [1]: 6 to 8 h
- accumulation during multiple dose treatment [2]: no accumulation
